Values of other authors, collected in PubChem BioAssay AID1811 (Shanghai Institute of Organic Chemistry, 2009).
This is one part of the list. Calls of active or inactive are those of the source.

System: cell division protein kinase 2
Assay: PubChem AID 1811
Conditions: PDB complex binding affinities from literature

outcome, active:
Cc1nc(C)c(-c2ccnc(N)n2)s1, CC(=O)N[C@@H](CCCN=C(N)N)C(=O)N[C@@H](CCCN=C(N)N)C(=O)N[C@@H](CC(C)C)C(=O)N[C@@H](CC(N)=O)C(=O)N[C@@H](Cc1cccc(Cl)c1)C(N)=O, CN(C)C[C@@H](O)COc1ccc(Nc2ncc(Br)c(Nc3ccccc3)n2)cc1, Clc1cccc(Nc2nc(OCC3CCCCC3)c3[nH]cnc3n2)c1, Nc1n[nH]c(N)c1N=Nc1ccc(O)cc1, NS(=O)(=O)c1cccc(Nc2nc(OCC3CCCCC3)c3[nH]cnc3n2)c1, CC(=O)N[C@@H](CCCN=C(N)N)C(=O)N[C@H]1CCCCNC(=O)CNC(=O)[C@H](Cc2ccccc2)NC(=O)[C@H](CC(C)C)NC1=O, CC(C)C[C@H](NC(=O)[C@H](CCCN=C(N)N)NC(=O)[C@@H](N)CCCN=C(N)N)C(=O)N[C@@H](CC(N)=O)C(=O)N[C@@H](Cc1ccc(F)cc1)C(N)=O
